# In patent publication US7169905 (dated 2007):
# T1: IL-1 receptor (human, UniProt P14778)
# T1 chain: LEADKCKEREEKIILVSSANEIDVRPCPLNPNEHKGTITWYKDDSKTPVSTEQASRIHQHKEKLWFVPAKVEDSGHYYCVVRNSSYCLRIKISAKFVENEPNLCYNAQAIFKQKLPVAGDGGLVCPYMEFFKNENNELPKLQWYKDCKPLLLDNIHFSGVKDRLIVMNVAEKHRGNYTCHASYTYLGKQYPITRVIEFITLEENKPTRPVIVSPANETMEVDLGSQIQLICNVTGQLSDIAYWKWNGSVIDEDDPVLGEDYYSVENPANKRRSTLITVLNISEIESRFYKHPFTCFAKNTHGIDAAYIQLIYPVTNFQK
# B1: IL-1ra (protein)
# chain: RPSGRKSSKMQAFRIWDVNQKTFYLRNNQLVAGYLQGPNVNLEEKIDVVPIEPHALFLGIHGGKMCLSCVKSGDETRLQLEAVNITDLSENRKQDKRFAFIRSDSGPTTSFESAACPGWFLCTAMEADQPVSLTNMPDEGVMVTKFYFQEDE
# Tests used:
# IL-1 receptor [1] = molecular target: T1, IL-1 receptor; assay: competition
# IL-1 receptor [2] = molecular target: T1, IL-1 receptor; assay: competition
binder,measurement,setting,value
B1,EC50,IL-1 receptor [1],2.65 nM
same,Ki,IL-1 receptor [2],1.41 nM
